From ChEMBL document CHEMBL1132549, “Design and structure-activity relationship of a new class of potent VEGF receptor tyrosine kinase inhibitors” (J Med Chem, 1999)

Sequences of proteins named here, by UniProt entry; tags and fusion partners are left off.
UniProt P17948, whole entry: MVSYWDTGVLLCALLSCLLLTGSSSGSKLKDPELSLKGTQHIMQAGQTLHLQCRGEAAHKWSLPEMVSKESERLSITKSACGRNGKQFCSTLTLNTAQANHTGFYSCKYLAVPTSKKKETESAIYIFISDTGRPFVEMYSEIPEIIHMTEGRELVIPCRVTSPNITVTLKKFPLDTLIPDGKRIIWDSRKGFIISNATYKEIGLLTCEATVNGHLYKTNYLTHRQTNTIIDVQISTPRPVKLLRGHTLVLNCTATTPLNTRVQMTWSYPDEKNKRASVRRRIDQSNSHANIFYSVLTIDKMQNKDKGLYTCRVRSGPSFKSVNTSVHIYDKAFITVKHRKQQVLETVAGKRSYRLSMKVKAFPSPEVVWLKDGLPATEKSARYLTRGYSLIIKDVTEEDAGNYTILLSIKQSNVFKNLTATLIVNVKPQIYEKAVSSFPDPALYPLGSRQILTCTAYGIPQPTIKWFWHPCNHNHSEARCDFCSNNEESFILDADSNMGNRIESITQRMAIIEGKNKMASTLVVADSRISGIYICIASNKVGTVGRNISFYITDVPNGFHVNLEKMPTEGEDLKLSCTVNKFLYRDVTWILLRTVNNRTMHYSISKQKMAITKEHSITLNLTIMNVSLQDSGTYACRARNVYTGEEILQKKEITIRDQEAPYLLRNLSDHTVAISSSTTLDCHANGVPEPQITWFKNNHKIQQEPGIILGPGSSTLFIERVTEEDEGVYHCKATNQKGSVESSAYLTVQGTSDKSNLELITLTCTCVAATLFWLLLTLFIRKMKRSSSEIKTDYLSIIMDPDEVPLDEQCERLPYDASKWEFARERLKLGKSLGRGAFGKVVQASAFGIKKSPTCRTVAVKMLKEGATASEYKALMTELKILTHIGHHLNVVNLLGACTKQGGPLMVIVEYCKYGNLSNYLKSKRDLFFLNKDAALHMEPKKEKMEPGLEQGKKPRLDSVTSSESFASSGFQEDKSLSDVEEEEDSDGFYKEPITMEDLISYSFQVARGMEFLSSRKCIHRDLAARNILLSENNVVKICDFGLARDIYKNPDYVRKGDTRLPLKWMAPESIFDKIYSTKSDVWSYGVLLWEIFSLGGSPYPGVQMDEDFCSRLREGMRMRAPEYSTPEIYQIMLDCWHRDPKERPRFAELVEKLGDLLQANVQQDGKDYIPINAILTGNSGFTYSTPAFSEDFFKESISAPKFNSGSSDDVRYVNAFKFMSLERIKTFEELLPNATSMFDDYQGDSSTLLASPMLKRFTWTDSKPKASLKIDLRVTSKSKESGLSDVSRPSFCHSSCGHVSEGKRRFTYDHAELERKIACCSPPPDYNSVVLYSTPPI

Biological target: Vascular endothelial growth factor receptor 1 (Homo sapiens, UniProt P17948)

IC50: 2000 nM
SMILES: COc1cc2ncnc(Nc3ccc(Cl)cc3F)c2cc1OC
